Measurements published in patent US5684034A, “1H-indole-3-acetamide sPLA2 inhibitors” (Eli Lilly and Company, priority 1995, dated 1997).

Molecular target: T1, recombinant human secreted phospholipase A2 (Homo sapiens, UniProt P14555)
T1 sequence (P14555 21-144): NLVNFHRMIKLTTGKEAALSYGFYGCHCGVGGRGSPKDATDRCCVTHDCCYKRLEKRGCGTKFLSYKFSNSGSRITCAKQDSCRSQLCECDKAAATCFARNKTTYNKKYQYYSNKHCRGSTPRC
Test: Human secreted phospholipase A2 inhibition test (chromogenic assay, diheptanoyl thio-PC substrate)
Assay type: biochemical
Conditions: pH 7.5, 40° C., 30 minutes, 405 nm; read-out: Inhibition of human secreted PLA2 IC50 ± mean deviation (3-5 tests)
Method: The following chromogenic assay procedure was used to identify and evaluate inhibitors of recombinant human secreted phospholipase A2. The assay described herein has been adapted for high volume screening using 96 well microtiter plates.
A measured volume of racetic dipheptanoyl thio PC supplied in chloroform at a concentration of 100 mg/ml is taken to dryness and redissolved in 10 millimolar TRITON X-100™ nonionic detergent aqueous solution. Reaction Buffer is added to the solution, then DTNB to give the Reaction Mixture.
The reaction mixture thus obtained contains 1 mM diheptanoly thio-PC substrate, 0.29 mm Triton X-100™ detergent, and 0.12 mm DTMB in a buffered aqueous solution at pH 7.5.
1. Add 0.2 ml reaction mixture to all wells;
2. Add 10 ul test compound (or solvent blank) to appropriate wells, mix 20 seconds:
3. Add 50 nanograms of sPLA2 (10 microliters) to appropriate wells;
4. incubate plate at 40° C. for 30 minutes;
All compounds were tested in triplicate. […] Each sample was titrated in triplicate and result values were averaged for plotting and calculation of IC50 values. […] Each IC50 value was determined three times.

## Cc1c(CC(N)=O)c2c(OCCCC(=O)O)cccc2n1Cc1ccccc1 [Example 38, 4-[[3-(2-Amino-2-oxoethyl)-2-methyl-1-(phenylmethyl)-1H-indol-4-yl]oxy]butanoic acid]
  IC50: 400 ± 70 nM
